Assay results taken from article PMC5672024, “Selective Glucocorticoid Receptor Properties of GSK866 Analogs with Cysteine Reactive Warheads” (Frontiers in Immunology, 2017).
Entries after “also recorded” stand apart in the source; their conditions may differ.

Tested on: recombinant GR-LBD (hGR)
Experiment: Mass spectrometry of tryptic peptides of recombinant GR-LBD after ligand incubation (covalent binding)
Design: species or system human

Question: With C[C@@H]1C[C@H]2[C@@H]3CCC4=CC(=O)C=C[C@]4(C)[C@@]3(F)[C@@H](O)C[C@]2(C)[C@@]1(O)C(=O)COS(C)(=O)=O [Dex-Mes, dexamethasone-21-mesylate, reference compound] as the compound, how does the “Modifications: GR-LBD cysteine-containing peptide covalently bound” value read?
Answer: The value was “cysteine C622; also recorded: Peptide 615–633 → C622”.
